The values below are quoted from earlier work in patent EP0999856B1, “RADIOPHARMACEUTICALS FOR IMAGING INFECTION AND INFLAMMATION” (Bristol-Myers Squibb Pharma Company, priority 1996, dated 1998).

By UniProt entry, the sequences of proteins in these tests, tags left out.
UniProt Q15722, whole entry: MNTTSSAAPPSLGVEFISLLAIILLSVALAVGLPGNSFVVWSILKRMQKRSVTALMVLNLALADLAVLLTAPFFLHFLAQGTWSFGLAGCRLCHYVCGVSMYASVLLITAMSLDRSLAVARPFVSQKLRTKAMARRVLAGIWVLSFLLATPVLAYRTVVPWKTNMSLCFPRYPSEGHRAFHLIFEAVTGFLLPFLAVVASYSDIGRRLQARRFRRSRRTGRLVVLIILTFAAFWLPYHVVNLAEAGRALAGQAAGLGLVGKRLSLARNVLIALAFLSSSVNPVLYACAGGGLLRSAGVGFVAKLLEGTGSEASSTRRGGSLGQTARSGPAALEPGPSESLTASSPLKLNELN

SMILES strings stand for the structures.

This data set deals with LTB4 receptor (Homo sapiens, UniProt Q15722). The settings on record: Sawyer et al.; J. Med. Chem., 1995, 38, 4411-32; cited from earlier work.

Take `CCc1cc(-c2ccc(F)cc2)c(O)cc1OCCCCCC(C)(C)c1nnn[nH]1`: the “affinity for the LTB4 receptor” value is “excellent affinity”.
